# Binding of CDR-mutated scFvs to a peptide of the spike HR2 region

Reference: Engelhart et al. 2022, doi:10.1038/s41597-022-01779-4. File: FLAb, binding data.

Antigen: PDVDLGDISGINAS, a 14-residue peptide of the SARS-CoV-2 spike HR2 region.

Parent scFv Ab-14: VH joined to VL by a 15-residue (Gly4Ser)3 linker. Changes lie in the light chain CDRs alone.
VH: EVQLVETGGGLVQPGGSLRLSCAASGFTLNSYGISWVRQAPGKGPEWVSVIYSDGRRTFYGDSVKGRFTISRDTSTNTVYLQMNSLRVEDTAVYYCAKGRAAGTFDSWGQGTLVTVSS
VL: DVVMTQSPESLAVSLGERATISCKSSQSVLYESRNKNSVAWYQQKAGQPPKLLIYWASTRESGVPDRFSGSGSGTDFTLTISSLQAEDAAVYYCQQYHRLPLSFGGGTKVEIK

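The parent was found by panning a naive human phage display library on the peptide. The library (AAYL50) carries one to three amino acid substitutions per variant, with no insertions or deletions. Affinity was read by AlphaSeq, a pooled yeast mating assay with surface-displayed partners. Binding brings cells together so that they mate, and sequencing counts the barcode pairs among the diploids. Read counts were normalised to the haploid input and turned into Kd by a linear fit to BCL2-family pairs of known affinity, for each replicate. The assay was run in three technical replicates.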

The parent's light chain CDRs are KSSQSVLYESRNKNSVA, WASTRES, QQYHRLPLS; each variant's own CDRs replace them letter for letter. Numbers give log10(Kd / nM), so 0 is 1 nM and 3 is 1 µM. Smaller is tighter. The mean shown is taken over the replicates in which the pair was detected. "n.d." marks a missing value. The strain was present, yet no cells mated with the target were sequenced in that replicate, which points to weak or no binding.

| CDR-L1 | CDR-L2 | CDR-L3 | log10 Kd (nM) by replicate | mean log10 Kd (nM) | control signals |
|---|---|---|---|---|---|
| KSSQSVLYESRNHNSVA | WASNRES | QSYHRLPLS | 2.35 / 2.72 / 2.63 | 2.57 | 2/9 (4.06) |
| KSSQSCLYESRNKNEFA | WASTRES | QQYHRLPLS | n.d. / n.d. / 5.09 | 5.09 | 1/9 (2.89) |
| KSSQSVLYESRHKNSVA | KASLRES | QQYHRLPLS | n.d. / n.d. / n.d. | n.d. | 0/9 |
| KSSQSVGYESRNKNWVA | WASHRES | QQYHRLPLS | 4.03 / 3.71 / 4.61 | 4.12 | 4/9 (4.45) |
| KSSQSVLYESRNKMSVA | WASTRES | QLYHRLPLH | 1.51 / 1.40 / 1.76 | 1.56 | 3/9 (4.32) |
| KSSQSPLYESRNKNSVA | WASTRES | QKYHRLPNS | 4.71 / n.d. / n.d. | 4.71 | 3/9 (3.88) |
| KSQQSVLYESRNKNSVA | WASTRES | QWYDRLPLS | 1.67 / 1.72 / 1.89 | 1.76 | 0/9 |
| KSSQSVLYESRNKQSPA | WASTRES | PQYHRLPLS | n.d. / n.d. / n.d. | n.d. | 0/9 |
| KSSQSVLIESRNKNSVA | WATTRES | QQYARLPLS | 0.39 / 0.73 / 0.61 | 0.58 | 3/9 (3.94) |
| KSSQSHLYESRNKNSVK | WASTRES | QQMHRLPLS | n.d. / 2.92 / n.d. | 2.92 | 1/9 (3.31) |
| KRSQSVLYESRNKNSVA | WACTRES | QQYARLPLS | 3.79 / n.d. / n.d. | 3.79 | 0/9 |
| RSSQSVLYESRNKNSVA | WASTREF | QQYHRLRLS | 2.74 / n.d. / 2.51 | 2.63 | 0/9 |
| KSSQSVLYEIRNKNLVA | WASVRES | QQYHRLPLS | 6.27 / 3.81 / 4.94 | 5.01 | 7/9 (3.93) |
| KSSQIVSYESRNKNSVA | WASTRES | QQQHRLPLS | n.d. / n.d. / n.d. | n.d. | 3/9 (4.22) |
| KSSQSVLYESRNKNSVA | WAKTRES | QQYWRLPLS | 1.32 / 1.42 / 1.31 | 1.35 | 3/9 (4.45) |
| KLSQSVLYHSRNKNSVA | WASTRES | QQYHRLPLS | 0.48 / 0.73 / 0.46 | 0.56 | 0/9 |
| KSYQSVLYESRNKNNTA | WASTRES | QQYHRLPLS | n.d. / n.d. / n.d. | n.d. | 0/9 |
| KSSQSVLYERRNKGSVA | WASTPES | QQYHRLPLS | n.d. / n.d. / n.d. | n.d. | 1/9 (3.85) |
| NSSQSVLYECRNKNSVA | WASERES | QQYHRLPLS | 5.27 / 4.11 / n.d. | 4.69 | 5/9 (4.62) |
| KSIQSVLYESRNKNSPA | WASTRES | QQYHILPLS | n.d. / n.d. / n.d. | n.d. | 2/9 (2.22) |
| KSSQSVLYESRNKNYFA | WASTRES | QQYHRLPLS | n.d. / 3.72 / 4.91 | 4.31 | 3/9 (4.41) |
| MSSQSVLYESINKNSVA | WASTRES | QQQHRLPLS | n.d. / n.d. / n.d. | n.d. | 0/9 |
| KSSQSVLYESPNKNSVA | WASTREF | QQYHRLPLS | 0.88 / 0.95 / 1.10 | 0.97 | 0/9 |
| KESQSVLYESRNKNSVA | WDSTRES | QQYHRLPLW | n.d. / n.d. / n.d. | n.d. | 0/9 |
| KSSASELYESRNKNSVA | LASTRES | QQYHRLPLS | 0.61 / 0.81 / 0.74 | 0.72 | 5/9 (5.32) |
| KSSQSVRYESRNRNSVA | WASTREI | QQYHRLPLS | 0.74 / 1.12 / 1.21 | 1.02 | 0/9 |
| KMSQSVLYESRNKNSVA | PASTRES | QQYHRLPLS | n.d. / n.d. / n.d. | n.d. | 0/9 |
| WSSQSVLYESRNKNSVA | PASTREA | QQYHRLPLS | n.d. / n.d. / n.d. | n.d. | 0/9 |
| KSSQSVLYESRNKNSVA | WASTFES | QQYSRSPLS | n.d. / n.d. / n.d. | n.d. | 0/9 |
| KSSQSVDYESVNKNSVA | WASTRSS | QQYHRLPLS | 0.69 / 0.96 / 0.99 | 0.88 | 4/9 (4.21) |
| KSSCSVLYESRNKNSQA | WASTRPS | QQYHRLPLS | n.d. / n.d. / 3.78 | 3.78 | 5/9 (4.34) |
| KSSQIALYESRNKNSVA | WASTRES | QQYHRAPLS | 1.42 / 1.42 / 1.80 | 1.54 | 1/9 (4.36) |
| KNSQSVLYESRNKNSVA | WVSTRES | QQYHRLPFS | 2.82 / 2.18 / 2.71 | 2.57 | 3/9 (4.43) |
| KSSQSVLYESRHKNSVA | WASTRDS | QQYHRLPQS | n.d. / n.d. / 5.36 | 5.36 | 4/9 (4.03) |
| MSSQSVLYESRNKNSVA | WASTRES | QVYHRLSLS | 3.12 / 4.02 / 3.06 | 3.40 | 0/9 |
| KVSQSVLYESRNKNSVA | WASTREW | QQYHRLPPS | 3.63 / n.d. / n.d. | 3.63 | 3/9 (3.96) |
| WSSQSVLYESRNKNSVQ | WASTRES | QQYHRMPLS | n.d. / n.d. / n.d. | n.d. | 0/9 |
| KSSQSVLYESRNKWSVY | WASTDES | QQYHRLPLS | n.d. / n.d. / n.d. | n.d. | 6/9 (4.24) |
| KSSQLVLYESRNKNSVA | WRSTRES | QQYHDLPLS | n.d. / n.d. / n.d. | n.d. | 0/9 |
| KSSQSVLYESRNWNSVA | WASTRES | RQYFRLPLS | 0.56 / 0.95 / 0.84 | 0.78 | 2/9 (3.43) |
| KSSQSVLYESRNKNSVA | WASTRVF | QQYHRLPLF | 2.51 / 2.22 / 2.33 | 2.35 | 4/9 (4.50) |

The first 4 entries again:

CDR-L1,CDR-L2,CDR-L3,log10 Kd (nM) by replicate,mean log10 Kd (nM),control signals
KSSQSVLYESRNHNSVA,WASNRES,QSYHRLPLS,2.35 / 2.72 / 2.63,2.57,2/9 (4.06)
KSSQSCLYESRNKNEFA,WASTRES,QQYHRLPLS,n.d. / n.d. / 5.09,5.09,1/9 (2.89)
KSSQSVLYESRHKNSVA,KASLRES,QQYHRLPLS,n.d. / n.d. / n.d.,n.d.,0/9
KSSQSVGYESRNKNWVA,WASHRES,QQYHRLPLS,4.03 / 3.71 / 4.61,4.12,4/9 (4.45)

Three control strains display no target. For library AAYL50, 18% of the pairings with them gave a signal, with a median of 4.19 and one signal in twenty below 2.99, so weak values seen in few replicates may be background. Also given: how often the same scFv was detected with the empty control strains, with their mean in brackets.